From BindingDB's records for 3783578
Several values for one entry are separate records, joined by “and”; a condition that tells them apart may be missing. Identical values can stand only once.

By UniProt entry, the sequences of proteins in these tests, tags left out. Residues count along the entry.
UniProt O42275, 24-633 limits assumed: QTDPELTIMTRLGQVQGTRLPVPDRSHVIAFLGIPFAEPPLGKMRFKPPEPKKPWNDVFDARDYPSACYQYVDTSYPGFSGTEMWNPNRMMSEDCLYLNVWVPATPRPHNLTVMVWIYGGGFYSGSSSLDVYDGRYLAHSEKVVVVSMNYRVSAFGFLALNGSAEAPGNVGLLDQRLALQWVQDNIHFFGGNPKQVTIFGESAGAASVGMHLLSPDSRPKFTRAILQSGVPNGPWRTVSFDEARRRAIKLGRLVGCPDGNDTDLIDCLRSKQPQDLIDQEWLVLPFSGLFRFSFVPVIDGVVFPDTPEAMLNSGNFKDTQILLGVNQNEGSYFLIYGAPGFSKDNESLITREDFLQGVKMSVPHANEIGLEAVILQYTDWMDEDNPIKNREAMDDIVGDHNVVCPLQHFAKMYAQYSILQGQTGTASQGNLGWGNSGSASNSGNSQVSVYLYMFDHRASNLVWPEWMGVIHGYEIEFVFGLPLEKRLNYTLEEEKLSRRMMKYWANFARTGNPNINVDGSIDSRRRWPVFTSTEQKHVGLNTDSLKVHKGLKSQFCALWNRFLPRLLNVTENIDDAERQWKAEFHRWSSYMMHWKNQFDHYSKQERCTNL

target: T1, Acetylcholinesterase (Electrophorus electricus, UniProt O42275); test: In vitro reversible inhibition of eel acetylcholinesterase.

Row | Structure (SMILES) | IC50
1 | O=NCc1nc(-c2ccccc2)no1 | > 1000 µM

target: T1, Acetylcholinesterase; test: ChEBML_27977

Row | Structure (SMILES) | IC50
2 | O=NCc1nc(-c2cccs2)no1 | > 500 µM
3 | C[n+]1c(CCO[n+]2ccc(C(N)=O)cc2)cccc1CN=O | 400 µM and > 1000 µM
4 | CCN(CC)CCSC(N=O)c1nc(C)no1 (centres undefined) | 104 µM
5 | Cc1noc(CN=O)n1 | > 1000 µM
6 | O=NCc1nc(Cc2ccccc2)no1 | > 1000 µM
7 | CCN(CC)CCSC(N=O)c1nc(Cc2ccccc2)no1 (centres undefined) | 55 µM
8 | O=NCc1nc(-c2cccc3ccccc23)no1 | > 1000 µM
9 | CCCCCCCCc1noc(CN=O)n1 | > 1000 µM
10 | CCN(CC)CCSC(N=O)c1nc(C(C)(C)C)no1 (centres undefined) | 99 µM
11 | CC(C)(C)c1noc(CN=O)n1 | > 1000 µM
12 | CCN(CC)CCSC(N=O)c1nc(-c2ccccc2)no1 (centres undefined) | 220 µM
13 | O=NCc1nc(-c2ccccc2)no1 | > 1000 µM
14 | CCN(CC)CCNC(=NO)c1nc(-c2ccccc2)no1 | 890 µM
